From patent US10208040B2, “Fused imidazo-piperidine JAK inhibitors” (THERAVANCE BIOPHARMA R&D IP, LLC, priority 2017, dated 2019)
pKi: −log10 of the molar value.

Amino acid sequences for entries named in this document (tags omitted). A change or cut given only in a name is not applied to a line headed by its entry.
UniProt P52333: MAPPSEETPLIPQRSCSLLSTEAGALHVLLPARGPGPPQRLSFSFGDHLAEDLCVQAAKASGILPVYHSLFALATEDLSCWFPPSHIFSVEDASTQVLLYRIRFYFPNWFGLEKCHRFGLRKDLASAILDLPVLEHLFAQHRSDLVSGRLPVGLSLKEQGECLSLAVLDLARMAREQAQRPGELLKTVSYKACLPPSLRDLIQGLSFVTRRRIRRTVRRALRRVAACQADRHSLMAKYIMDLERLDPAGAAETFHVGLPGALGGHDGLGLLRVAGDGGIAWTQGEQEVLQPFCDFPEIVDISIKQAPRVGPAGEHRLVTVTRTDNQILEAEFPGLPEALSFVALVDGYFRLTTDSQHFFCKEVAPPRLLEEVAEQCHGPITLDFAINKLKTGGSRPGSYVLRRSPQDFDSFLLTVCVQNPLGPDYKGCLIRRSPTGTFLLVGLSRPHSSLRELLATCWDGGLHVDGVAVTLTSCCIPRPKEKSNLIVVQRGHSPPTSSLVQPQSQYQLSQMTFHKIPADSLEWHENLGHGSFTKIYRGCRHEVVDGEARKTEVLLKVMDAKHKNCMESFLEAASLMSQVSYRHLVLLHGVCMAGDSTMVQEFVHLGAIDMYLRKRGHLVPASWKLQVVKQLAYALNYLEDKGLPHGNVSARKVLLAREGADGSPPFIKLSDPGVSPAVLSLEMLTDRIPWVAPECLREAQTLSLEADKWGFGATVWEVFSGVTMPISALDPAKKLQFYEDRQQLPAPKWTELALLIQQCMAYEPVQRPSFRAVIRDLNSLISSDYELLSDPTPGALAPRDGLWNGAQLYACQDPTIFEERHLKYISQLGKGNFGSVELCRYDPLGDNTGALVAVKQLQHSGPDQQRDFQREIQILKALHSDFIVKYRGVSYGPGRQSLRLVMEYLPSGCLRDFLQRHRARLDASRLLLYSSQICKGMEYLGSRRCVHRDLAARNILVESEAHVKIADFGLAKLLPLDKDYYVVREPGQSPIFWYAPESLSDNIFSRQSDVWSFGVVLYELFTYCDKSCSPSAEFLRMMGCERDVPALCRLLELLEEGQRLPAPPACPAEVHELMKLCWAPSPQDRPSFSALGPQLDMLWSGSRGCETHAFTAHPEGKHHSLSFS
UniProt P29597: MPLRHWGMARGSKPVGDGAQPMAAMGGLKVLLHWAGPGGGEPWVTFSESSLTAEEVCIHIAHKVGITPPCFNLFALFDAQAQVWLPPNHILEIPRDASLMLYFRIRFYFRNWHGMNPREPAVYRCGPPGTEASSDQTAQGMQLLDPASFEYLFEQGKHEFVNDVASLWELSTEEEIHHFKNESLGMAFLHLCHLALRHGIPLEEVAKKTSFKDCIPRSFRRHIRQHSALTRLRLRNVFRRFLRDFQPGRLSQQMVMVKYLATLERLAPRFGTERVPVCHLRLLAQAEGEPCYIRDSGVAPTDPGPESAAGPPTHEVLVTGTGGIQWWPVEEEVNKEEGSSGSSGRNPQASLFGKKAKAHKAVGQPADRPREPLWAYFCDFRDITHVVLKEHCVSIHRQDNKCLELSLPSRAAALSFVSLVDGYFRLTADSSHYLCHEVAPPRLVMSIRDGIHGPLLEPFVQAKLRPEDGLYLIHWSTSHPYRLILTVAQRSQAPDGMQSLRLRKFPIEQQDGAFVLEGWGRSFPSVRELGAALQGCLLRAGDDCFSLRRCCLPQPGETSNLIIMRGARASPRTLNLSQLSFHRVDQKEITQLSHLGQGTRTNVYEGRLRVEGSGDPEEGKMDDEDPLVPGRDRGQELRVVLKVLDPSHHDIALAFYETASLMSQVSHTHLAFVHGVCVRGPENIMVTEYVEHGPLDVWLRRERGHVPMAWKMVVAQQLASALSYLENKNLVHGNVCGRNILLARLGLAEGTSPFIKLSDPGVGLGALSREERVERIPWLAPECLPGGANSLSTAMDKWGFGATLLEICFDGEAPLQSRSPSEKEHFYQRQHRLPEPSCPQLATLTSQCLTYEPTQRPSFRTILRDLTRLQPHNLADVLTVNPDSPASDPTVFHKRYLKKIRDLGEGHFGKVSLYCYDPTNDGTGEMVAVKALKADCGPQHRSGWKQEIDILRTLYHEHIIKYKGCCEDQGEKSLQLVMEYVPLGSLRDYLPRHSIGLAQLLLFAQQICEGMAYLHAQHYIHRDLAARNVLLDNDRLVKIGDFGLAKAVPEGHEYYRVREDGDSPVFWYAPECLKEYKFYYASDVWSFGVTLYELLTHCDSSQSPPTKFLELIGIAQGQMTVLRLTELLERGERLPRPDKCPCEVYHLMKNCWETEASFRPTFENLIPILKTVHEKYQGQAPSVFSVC

Key:
JAK3 = JAK3 (Homo sapiens (Human), UniProt P52333); experiment: Biochemical JAK kinase assay (LanthaScreen), JAK3
Experimental: (§1) A panel of four LanthaScreen JAK biochemical assays (JAK1, 2, 3 and Tyk2) were carried in a common kinase reaction buffer (50 mM HEPES, pH 7.5, 0.01% Brij-35, 10 mM MgCl2, and 1 mM EGTA). Recombinant GST-tagged JAK enzymes and a GFP-tagged STAT1 peptide substrate were obtained from Life Technologies.
(§2) Serially diluted compounds were pre-incubated with each of the four JAK enzymes and the substrate in white 384-well microplates (Corning) at ambient temperature for 1 h. ATP was subsequently added to initiate the kinase reactions in 10 μL total volume, with 1% DMSO. […] The plates were allowed to incubate at ambient temperature for 1 h before being read on the EnVision reader (Perkin Elmer).
(§3) For dose-response analysis, percent inhibition data were plotted vs. compound concentrations, and IC50 values were determined from a 4-parameter robust fit model with the Prism software (GraphPad Software). Results were expressed as pIC50 (negative logarithm of IC50) and subsequently converted to pKi (negative logarithm of dissociation constant, Ki) using the Cheng-Prusoff equation.

Tyk2 = Tyk2 (Homo sapiens (Human), UniProt P29597); experiment: Biochemical JAK kinase assay (LanthaScreen), Tyk2
Experimental: as §1, §2, §3

Row | SMILES | pKi (JAK3) | pKi (Tyk2)
1 | CCCN1Cc2[nH]c(-c3n[nH]c4cc(-c5cc(F)c(O)cc5CC)ccc34)nc2C[C@H]1C(=O)N1CCN(CCO)CC1 [Example 7, (S)-(2-(6-(2-ethyl-5-fluoro-4-hydroxyphenyl)-1H-indazol-3-yl)-5-propyl-4,5,6,7-tetrahydro-3H-imidazo[4,5-c]pyridin-6-yl)(4-(2-hydroxyethyl)piperazin-1-yl)methanone] | 9.80 | 
2 | CCc1cc(O)c(F)cc1-c1ccc2c(-c3nc4c([nH]3)CN(C)[C@H](C(=O)N3CCN(CCO)C[C@H]3C)C4)n[nH]c2c1 [Example 6, ((S)-2-(6-(2-ethyl-5-fluoro-4-hydroxyphenyl)-1H-indazol-3-yl)-5-methyl-4,5,6,7-tetrahydro-3H-imidazo[4,5-c]pyridin-6-yl)((R)-4-(2-hydroxyethyl)-2-methyl-piperazin-1-yl)methanone] | 9.60 | 
3 | CCc1cc(O)c(F)cc1-c1ccc2c(-c3nc4c([nH]3)CN(C)C(C(=O)N3CCN(C(C)C)CC3)C4)n[nH]c2c1 (centres unmarked) [Example 1-12] | 9.60 | 9.60
4 | CCCN1Cc2[nH]c(-c3n[nH]c4cc(-c5cc(F)c(O)cc5CC)ccc34)nc2C[C@@H]1C(=O)N1CC[C@H](N(C)C)C1 [Example 9-21] | 9.60 | 
